Target: vanilloid receptor 1 (VR1/TRPV1) of rats (Rattus norvegicus, UniProt O35433)
Assay: Functional analysis on the vanilloid receptor 1 (FLIPR Ca2+ influx assay in rat dorsal root ganglia cells)
Details: for VR1 (rat) (% inhibition in comparison with 10 μM CP) / VR1 (rat) (% stimulation in comparison with 10 μM CP): compound 10 μM, rat DRG cells; for VR1 (rat) (% inhibition in comparison with 10 μM CP): then 100 nM capsaicin after 5 min, relative to maximum inhibition with 10 μM capsaicin; for VR1 (rat) (% stimulation in comparison with 10 μM CP): Ca2+ signal relative to 10 μM capsaicin (CP); for inhibition at 10 µM: read-out: VR1 (rat) (% inhibition in comparison with 10 μM CP); for activation at 10 µM: read-out: VR1 (rat) (% stimulation in comparison with 10 μM CP)

Protein sequences, listed by entry. Tags and fused reporters are not part of them.
UniProt O35433, whole entry: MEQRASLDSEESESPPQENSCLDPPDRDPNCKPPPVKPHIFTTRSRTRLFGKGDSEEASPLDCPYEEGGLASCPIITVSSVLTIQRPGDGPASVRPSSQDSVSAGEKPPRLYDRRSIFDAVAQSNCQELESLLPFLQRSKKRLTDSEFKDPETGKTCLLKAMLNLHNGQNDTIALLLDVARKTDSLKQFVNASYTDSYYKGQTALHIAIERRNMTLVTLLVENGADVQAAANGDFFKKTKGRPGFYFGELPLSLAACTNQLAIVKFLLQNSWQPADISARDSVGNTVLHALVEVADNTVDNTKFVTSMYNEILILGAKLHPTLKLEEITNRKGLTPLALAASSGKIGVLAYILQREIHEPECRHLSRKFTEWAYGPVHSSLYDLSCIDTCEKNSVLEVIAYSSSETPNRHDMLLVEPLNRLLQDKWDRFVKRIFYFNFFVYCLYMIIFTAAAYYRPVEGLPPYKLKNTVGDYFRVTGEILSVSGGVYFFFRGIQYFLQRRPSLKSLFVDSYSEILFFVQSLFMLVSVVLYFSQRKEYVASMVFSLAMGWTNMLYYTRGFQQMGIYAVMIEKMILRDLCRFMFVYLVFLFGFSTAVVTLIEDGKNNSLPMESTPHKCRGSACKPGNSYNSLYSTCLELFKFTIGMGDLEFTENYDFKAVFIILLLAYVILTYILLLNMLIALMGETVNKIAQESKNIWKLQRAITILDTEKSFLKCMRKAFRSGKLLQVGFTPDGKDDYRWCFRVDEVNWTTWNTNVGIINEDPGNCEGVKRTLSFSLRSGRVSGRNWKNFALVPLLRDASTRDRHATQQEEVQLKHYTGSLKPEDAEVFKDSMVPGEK

Row | Compound | VR1 (rat) (% inhibition in comparison with 10 μM CP) [%] | VR1 (rat) (% stimulation in comparison with 10 μM CP) [%] | inhibition at 10 µM [%] | activation at 10 µM [%]
1 | COC(=O)C(NC(=O)c1c(N(C)C(=O)c2cccc(Cl)c2)nc2n1CCCC2)C(C)OC(C)(C)C (stereo not shown) [Example 123, 3-tert-butoxy-2-({2-[(3-chloro-benzoyl)-methyl-amino]-5,6,7,8-tetrahydro-imidazo[1,2-a]pyridine-3-carbonyl}-amino)-methyl butyrate] | 98 | 36 | – | –
2 | CCCCN(C(=O)c1ccc(F)c(F)c1)c1nc2n(c1C(=O)N1CCN(c3ccc(C(F)(F)F)cn3)CC1)CCCC2 [Example 187, N-butyl-3,4-difluoro-N-{3-[4-(5-trifluoromethyl-pyridin-2-yl)-piperazine-1-carbonyl]-5,6,7,8-tetrahydro-imidazo[1,2-a]pyridin-2-yl}-benzamide] | – | – | 37 | –
3 | CCCCN(C(=O)c1ccc(F)c(F)c1)c1nc2n(c1C(=O)NCCC(C)(C)C)CCCC2 [Example 171, 2-[butyl-(3,4-difluoro-benzoyl)-amino]-5,6,7,8-tetrahydro-imidazo[1,2-a]pyridine-3-carboxylic acid (3,3-dimethyl-butyl)-amide] | – | – | 104 | 46
4 | CCCCN(C(=O)c1ccc(F)c(F)c1)c1nc2n(c1C(=O)N1CCN(C(c3ccccc3)c3ccccc3)CC1)CCCC2 [Example 56, N-[3-(4-benzhydryl-piperazine-1-carbonyl)-5,6,7,8-tetrahydro-imidazo[1,2-a]pyridin-2-yl]-N-butyl-3,4-difluoro-benzamide] | – | – | 53 | –
5 | CCCCN(C(=O)c1cccc(Cl)c1)c1nc2n(c1C(=O)NCc1ccc(F)cc1F)CCCC2 [Example 47, 2-[butyl-(3-chloro-benzoyl)-amino]-5,6,7,8-tetrahydro-imidazo[1,2-a]pyridine-3-carboxylic acid 2,4-difluoro-benzylamide] | – | – | 81 | 60
6 | CCCCN(C(=O)c1cccc(Cl)c1)c1nc2n(c1C(=O)NCc1ccc(OC)cc1OC)CCCC2 [Example 65, 2-[butyl-(3-chloro-benzoyl)-amino]-5,6,7,8-tetrahydro-imidazo[1,2-a]pyridine-3-carboxylic acid 2,4-dimethoxy-benzylamide] | – | – | 30 | –
7 | CCCCN(C(=O)c1cccc(Cl)c1)c1nc2n(c1C(=O)NC(c1ccccc1)c1ccccc1)CCCC2 [Example 147, 2-[butyl-(3-chloro-benzoyl)-amino]-5,6,7,8-tetrahydro-imidazo[1,2-a]pyridine-3-carboxylic acid benzhydryl-amide] | – | – | 53 | –
8 | CCCCN(C(=O)c1cccc(Cl)c1)c1nc2n(c1C(=O)N[C@H](C(=O)OCc1ccccc1)C(C)C)CCCC2 [Example 91] | – | – | 121 | –
9 | CN(C(=O)c1cccc2ccccc12)c1nc2n(c1C(=O)NC(c1ccccc1)c1ccc(Cl)cc1)CCCC2 (stereo not shown) [Example 139, 2-[methyl-(naphthalene-1-carbonyl)-amino]-5,6,7,8-tetrahydro-imidazo[1,2-a]pyridine-3-carboxylic acid [(4-chlor-phenyl)-phenyl-methyl]-amide] | 43 | – | – | –
10 | CCCCN(C(=O)c1cccc(Cl)c1)c1nc2n(c1C(=O)NCc1cccc(F)c1)CCCC2 [Example 158, 2-[butyl-(3-chloro-benzoyl)-amino]-5,6,7,8-tetrahydro-imidazo[1,2-a]pyridine-3-carboxylic acid 3-fluoro-benzylamide] | – | – | 53 | 33
11 | CCCCN(C(=O)c1cccc(Cl)c1)c1nc2n(c1C(=O)NC(C)c1cccc3ccccc13)CCCC2 (stereo not shown) [Example 39, 2-[butyl-(3-chloro-benzoyl)-amino]-5,6,7,8-tetrahydro-imidazo[1,2-a]pyridine-3-carboxylic acid (1-naphthalen-1-yl-ethyl)-amide] | – | – | 99 | 38
12 | CCCCN(C(=O)c1cccc(Cl)c1)c1nc2n(c1C(=O)NCC1COc3ccccc3O1)CCCC2 (stereo not shown) [Example 77, 2-[butyl-(3-chloro-benzoyl)-amino]-5,6,7,8-tetrahydro-imidazo[1,2-a]pyridine-3-carboxylic acid (2,3-dihydro-benzo[1,4]dioxin-2-ylmethyl)-amide] | – | – | 63 | –
13 | 4-methyl-2-({2-[methyl-(naphthalene-1-carbonyl)-amino]-5,6,7,8-tetrahydro-imidazo[1,2-a]pyridine-3-carbonyl}-amino)-valeric acid tert-benzyl ester [Example 184] | 41 | 35 | – | –
14 | CCCCN(C(=O)c1cccc(Cl)c1)c1nc2n(c1C(=O)NC1CCCCC1OCc1ccccc1)CCCC2 (stereo not shown) [Example 124, 2-[butyl-(3-chloro-benzoyl)-amino]-5,6,7,8-tetrahydro-imidazo[1,2-a]pyridine-3-carboxylic acid (2-benzyloxy-cyclohexyl)-amide] | – | – | 93 | 37
15 | CCCCN(C(=O)c1cccc(Cl)c1)c1nc2n(c1C(=O)N1CCN(c3cccc(C(F)(F)F)c3)CC1)CCCC2 [Example 79, N-butyl-3-chloro-N-{3-[4-(3-trifluoromethyl-phenyl)-piperazine-1-carbonyl]-5,6,7,8-tetrahydro-imidazo[1,2-a]pyridin-2-yl}-benzamide] | – | – | 62 | –
16 | CCCCN(C(=O)c1ccc(F)c(F)c1)c1nc2n(c1C(=O)NCc1ccc(F)cc1F)CCCC2 [Example 74, 2-[butyl-(3,4-difluoro-benzoyl)-amino]-5,6,7,8-tetrahydro-imidazo[1,2-a]pyridine-3-carboxylic acid 2,4-difluoro-benzylamide] | – | – | 94 | 32
17 | CN(C(=O)c1cccc2ccccc12)c1nc2n(c1C(=O)Nc1ccc(Oc3ccccc3)cc1)CCCC2 [Example 185, 2-[methyl-(naphthalene-1-carbonyl)-amino]-5,6,7,8-tetrahydro-imidazo[1,2-a]pyridine-3-carboxylic acid (4-phenoxy-phenyl)-amide] | – | – | 56 | –
18 | CCCCN(C(=O)c1ccc(F)c(F)c1)c1nc2n(c1C(=O)NC1CCCCC1OCc1ccccc1)CCCC2 (stereo not shown) [Example 161, 2-[butyl-(3,4-difluoro-benzoyl)-amino]-5,6,7,8-tetrahydro-imidazo[1,2-a]pyridine-3-carboxylic acid (2-benzyloxy-cyclohexyl)-amide] | – | – | 91 | 32
19 | CCCCN(C(=O)c1ccc(F)c(F)c1)c1nc2n(c1C(=O)NCc1ccccc1OC(F)(F)F)CCCC2 [Example 88, 2-[butyl-(3,4-difluoro-benzoyl)-amino]-5,6,7,8-tetrahydro-imidazo[1,2-a]pyridine-3-carboxylic acid 2-trifluoromethoxy-benzylamide] | – | – | 132 | 44
20 | CCCCN(C(=O)c1ccc(F)c(F)c1)c1nc2n(c1C(=O)NC1CCCCC1C)CCCC2 (stereo not shown) [Example 93, 2-[butyl-(3,4-difluoro-benzoyl)-amino]-5,6,7,8-tetrahydro-imidazo[1,2-a]pyridine-3-carboxylic acid (2-methyl-cyclohexyl)-amide] | – | – | 171 | 51
21 | CCCCN(C(=O)c1ccc(F)c(F)c1)c1nc2n(c1C(=O)NCc1cccc(OC)c1)CCCC2 [Example 122, 2-[butyl-(3,4-difluoro-benzoyl)-amino]-5,6,7,8-tetrahydro-imidazo[1,2-a]pyridine-3-carboxylic acid 3-methoxy-benzylamide] | – | – | 62 | –
22 | CCCCN(C(=O)c1ccc(F)c(F)c1)c1nc2n(c1C(=O)NC(COC)Cc1ccccc1)CCCC2 (stereo not shown) [Example 82, 2-[butyl-(3,4-difluoro-benzoyl)-amino]-5,6,7,8-tetrahydro-imidazo[1,2-a]pyridine-3-carboxylic acid (1-methoxymethyl-2-phenyl-ethyl)-amide] | – | – | 77 | –
23 | CCC(C)C(NC(=O)c1c(N(C)C(=O)c2cccc(Cl)c2)nc2n1CCCC2)C(=O)OC(C)(C)C (stereo not shown) [Example 38, 2-({2-[(3-chloro-benzoyl)-methyl-amino]-5,6,7,8-tetrahydro-imidazo[1,2-a]pyridine-3-carbonyl}-amino)-3-methyl-pentanoic acid tert-butyl ester] | – | – | 40 | –
24 | CC(C)CC(NC(=O)c1c(N(C)C(=O)c2cccc(Cl)c2)nc2n1CCCC2)C(=O)OCc1ccccc1 (stereo not shown) [Example 42, 2-({2-[(3-chloro-benzoyl)-methyl-amino]-5,6,7,8-tetrahydro-imidazo[1,2-a]pyridine-3-carbonyl}-amino)-4-methyl-pentanoic acid benzyl ester] | – | – | 90 | 43
25 | CCCCN(C(=O)c1ccc(F)c(F)c1)c1nc2n(c1C(=O)NCCCc1ccccc1)CCCC2 [Example 28, 2-[butyl-(3,4-difluoro-benzoyl)-amino]-5,6,7,8-tetrahydro-imidazo[1,2-a]pyridine-3-carboxylic acid (3-phenyl-propyl)-amide] | – | – | 43 | –

Reference: US7829568B2, “Substituted 5,6,7,8-tetrahydroimidazo[1,2-a]pyridin-2-ylamine compounds and their use for producing drugs” (Gruenenthal GmbH, priority 2005, dated 2010)
